For one test, the system named is Mino cells. The experiment in a line: Cell inhibition assay (PrestoBlue cell viability). Type of test: cell-based. The conditions noted are these: Homo sapiens, 48 h incubation, read-out: IC50 inhibition of growth of Mino. As to the method:
(§1) Cell lines of SU-DHL-4 (ATCC® CRL-2957™), K-562 (ATCC® CCL-243™), and Mino (ATCC® CRL-3000™) were purchased from American Type Culture Collection (ATCC, Manassas, Va.). SU-DHL-4 cells and Mino cells grew in ATCC-formulated RPMI-1640 medium (ATCC) supplemented with 10% fetal bovine serum (FBS)(Gibco, Life Technologies) (complete medium) a T-75 flask at 37° C. under 5% CO2 with saturated humidity. K-562 cells grew in ATCC-formulated Iscove's Modified Dulbecco's Medium (IMDM) supplemented with 10% FBS (Gibco, Life Technologies) (complete medium) a T-75 flask at 37° C. under 5% CO2 with saturated humidity. When the cells grew to a concentration of approximately 1×10^6 cells/mL, they were diluted to 2.5-5×10^4 cells/mL with the corresponding complete medium for each cell line. […] The absorptions at 570 and 600 nm were measured with a SpectraMaxMicroplate reader (Molecular Devices). The absorbance at 570 nm was normalized to that at 600 nm. The normalized absorbance at 570 nm was used for IC50 calculation following the median-effect plot method (TC Chou. Theoretical basis, experimental design, and computerized simulation of synergism and antagonism in drug combination studies. Pharmacol Rev. 2006; 58:621-681).

Test [1] deals with diffuse large B-cell lymphoma cell line SU-DHL-4. In words: Cell inhibition assay (PrestoBlue cell viability). In kind it is cell-based. The conditions noted are these: Homo sapiens, SU-DHL-4, 48 h, 48 h incubation; read-out: IC50 inhibition of growth of SU-DHL-4. The protocol:
as §1

In patent US11236080B2, “Protein kinase inhibitors” (Princeton Drug Discovery Inc, priority 2016, dated 2022) one finds IC50 data, which are given here for one compound.

Structures are written as SMILES. A value given as a limit tells only on which side of the number the result lay.

Broadly, the IC50 is the midpoint of a concentration-inhibition curve. Take `[2H]c1cc(C)c(NC(=O)c2cnc(Nc3cc(N4CCN(CCO)CC4)nc(C)n3)s2)c(Cl)c1`: the IC50 with Mino cells is less than 50 nM; in test [1], less than 20 nM.
